# Tested on: Tulahuen C4 strain of Trypanosoma cruzi
# Conditions: T. cruzi vs host cell cytotoxicity
smiles,measurement,value
CN1CCN(c2ccc(S(=O)(=O)NCc3ccc(C(=O)Nc4cccnc4)cc3)cc2)CC1 [Compound 2],selectivity-index,≥ 10
